Target: Maternal embryonic leucine zipper kinase (Homo sapiens, UniProt Q14680)
Assay: Inhibition of recombinant C-terminal His6-tagged human MELK expressed in Escherichia coli BL21 (DE3) RIL using FAM-GS-derived peptide as substrate after 3 hrs by IMAP method

Amino acid sequences for entries named in this document (tags omitted). A change or cut given only in a name is not applied to a line headed by its entry.
UniProt Q14680: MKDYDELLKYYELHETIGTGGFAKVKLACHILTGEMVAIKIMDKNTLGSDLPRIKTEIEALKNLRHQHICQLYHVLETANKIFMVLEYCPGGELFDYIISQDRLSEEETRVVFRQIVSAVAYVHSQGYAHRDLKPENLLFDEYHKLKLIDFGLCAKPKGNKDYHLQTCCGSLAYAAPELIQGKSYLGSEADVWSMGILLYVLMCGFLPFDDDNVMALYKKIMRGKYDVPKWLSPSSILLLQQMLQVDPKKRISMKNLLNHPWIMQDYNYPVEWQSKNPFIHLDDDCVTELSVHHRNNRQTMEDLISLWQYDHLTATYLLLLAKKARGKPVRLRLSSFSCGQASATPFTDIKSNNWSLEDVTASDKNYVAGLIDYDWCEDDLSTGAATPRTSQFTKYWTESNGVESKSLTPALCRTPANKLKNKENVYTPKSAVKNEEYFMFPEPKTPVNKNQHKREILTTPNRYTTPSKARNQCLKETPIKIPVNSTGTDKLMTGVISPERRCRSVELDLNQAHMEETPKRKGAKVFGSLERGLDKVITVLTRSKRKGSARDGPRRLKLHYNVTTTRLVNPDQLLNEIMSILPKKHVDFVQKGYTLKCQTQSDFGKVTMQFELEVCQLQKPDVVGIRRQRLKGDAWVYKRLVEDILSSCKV

Which IC50 does the source give for `CC(=O)c1cnc2ccc(-c3cc(Cl)c(O)c(Cl)c3)nc2c1N[C@H]1CC[C@H](CN(C)C)CC1` here?
Its IC50 is 0.41 nM.

From ChEMBL document CHEMBL4261482, “Development of small molecular compounds targeting cancer stem cells” (Medchemcomm, 2017)
